Data on two compounds can be found in patent publication US8846694B2, “Pyrrolidone derivatives for use as MetAP-2 inhibitors” (Merck Patent GmbH, priority 2008, dated 2014).

By UniProt entry, the sequences of proteins in these tests, tags left out.
UniProt P50579, whole entry: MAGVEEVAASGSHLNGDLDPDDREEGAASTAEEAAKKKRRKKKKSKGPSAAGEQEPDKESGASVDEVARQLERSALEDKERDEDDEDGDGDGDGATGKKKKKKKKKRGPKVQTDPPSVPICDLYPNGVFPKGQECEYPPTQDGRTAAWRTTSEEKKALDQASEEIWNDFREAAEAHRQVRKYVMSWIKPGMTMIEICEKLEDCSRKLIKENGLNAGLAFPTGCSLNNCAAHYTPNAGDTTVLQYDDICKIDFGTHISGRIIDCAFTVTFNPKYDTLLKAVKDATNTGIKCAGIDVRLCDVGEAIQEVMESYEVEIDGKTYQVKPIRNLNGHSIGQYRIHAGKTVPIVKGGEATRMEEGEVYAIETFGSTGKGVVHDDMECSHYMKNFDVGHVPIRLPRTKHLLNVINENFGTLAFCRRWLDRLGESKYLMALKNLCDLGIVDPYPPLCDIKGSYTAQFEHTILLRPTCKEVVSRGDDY

The structures appear in SMILES notation. A value given as a limit tells only on which side of the number the result lay.

The target of this test is MetAP-2 (Homo sapiens, UniProt P50579). Put plainly: MetAP-2 activity measurement (coupled enzymatic reactions, substrate Met-Arg-Ser, photometric at 450 nm). Particulars: read-out: IC50 enzyme (Inhibition of MetAP-2).

What is called IC50 is the concentration that gives 50% inhibition. Turning to `c1ccc2c(OC[C@H]3CCCN3c3ncnc4[nH]cnc34)ncnc2c1`, the 50% inhibitory concentration (IC50) was above 10 µM.

For `CCCCOCc1ccc(OC[C@H]2CCCN2c2ncnc3[nH]cnc23)c2ccccc12`, the IC50 lay within 0.01 to 1 µM.
